# scFv variants of Ab-14 (light chain) against a SARS-CoV-2 spike peptide

The target is the same throughout: PDVDLGDISGINAS, from the HR2 region of SARS-CoV-2 spike.

Each scFv is VH, three GGGGS repeats, VL, as in the parent Ab-14, and differs from it in the CDRs of the light chain only.
VH: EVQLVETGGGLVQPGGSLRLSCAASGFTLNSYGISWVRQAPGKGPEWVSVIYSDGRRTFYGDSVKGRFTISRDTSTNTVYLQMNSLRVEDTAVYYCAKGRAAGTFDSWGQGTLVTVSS
VL: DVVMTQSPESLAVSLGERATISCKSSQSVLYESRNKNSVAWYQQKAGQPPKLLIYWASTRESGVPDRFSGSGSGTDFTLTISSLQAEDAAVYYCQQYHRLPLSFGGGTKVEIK

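The starting antibody came from a phage panning campaign against this peptide. These sequences belong to a second round, designed from the earlier measurements on random variants of the parent. Several design methods are mixed in this list. Affinity was read by AlphaSeq, a pooled yeast mating assay with surface-displayed partners. Binding brings cells together so that they mate, and sequencing counts the barcode pairs among the diploids. The ratio of observed to expected reads was calibrated, replicate by replicate, on BCL2-family standards whose Kd was known from biolayer interferometry. Mating was done six times.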

Each variant is given by its three light chain CDRs, as the data file delimits them; those of the parent are KSSQSVLYESRNKNSVA, WASTRES, QQYHRLPLS. This list holds designs with at most six substitutions. Each Kd is an estimate from the mating assay, the geometric mean of the replicates in which the pair was seen; lower is stronger. "nd" marks a missing value. The strain was present, yet no cells mated with the target were sequenced in any replicate, which points to weak or no binding.

- KVSESELYESRNKNSVA | NASYRES | QQYHRLPLS -> 1.4 nM (6 of 6 replicates)
- KFSQDVLYESRTKNSVA | NASTRES | QQYHRLPLS -> 2.0 nM (6 of 6 replicates)
- KSQQSVLYESRNKNNVA | DASTRED | QQYHRLPLS -> 690 pM (6 of 6 replicates)
- ENSQSVLYDSSNKNSVA | WASTRES | QQYHRLPLS -> 6.8 nM (6 of 6 replicates)
- KSSISYLYESMNTNSVA | EASTRES | QQYHRLPLS -> 17 nM (6 of 6 replicates)
- KSSQSQLYEERNKNSVA | WASTRES | QQYHRLPLS -> 5.6 nM (6 of 6 replicates)
- KLSESNLYESRNKNSVA | NASTRES | QQYHRLPLS -> 860 pM (6 of 6 replicates)
- KLRQSTLYKSRNKPSVA | WASTRES | QQYHWLPLS -> 3.9 µM (2 of 6 replicates)
- KSSQSVLYESRNKNSVA | YASTRES | QQYHRLPLW -> nd (0 of 6 replicates)
- KVPQSVLYESVNKHSVA | WASTRES | QQYHRLPLS -> 34 nM (6 of 6 replicates)
- KSSQSVLYESRNLIQVA | WASTRES | QSYHRLPLS -> 68 nM (6 of 6 replicates)
- KLPQSWLYESRNKNSVA | NASQRMS | QQYHRLPLS -> 580 pM (6 of 6 replicates)
- KSSQSVLYETRNKNSVA | AGSTRES | QQYHRLPLS -> 200 nM (1 of 6 replicates)
- KSSQSVLYESRVKNSVA | SASTRES | QQYHRLPLS -> 4.9 nM (6 of 6 replicates)
- KSSQSVLYESRNKASVA | AASTGES | QQYHRLPLS -> 890 nM (1 of 6 replicates)
- KLSQSVLYESRNKNNVA | HASTRCS | QQYHRLPLS -> 3.3 nM (6 of 6 replicates)
- KISQQVLGESRNMNSVA | NASTREA | QQYHRLPLS -> 2.9 nM (6 of 6 replicates)
- KSSQSVLYESRNKNDVA | WASTRES | QQYHRLPLS -> nd (0 of 6 replicates)
- KSSQSVDYESTNKNSVA | NASTRES | QQYHGLPLS -> 24 nM (5 of 6 replicates)
- KGSQSVLYEERNKNSVA | WATTRES | QQYHRLPLS -> 55 nM (4 of 6 replicates)
- KLRQSTLYESRNKNSVA | WASTRCS | QQYHRLPLS -> 3.2 nM (6 of 6 replicates)
- KFSPSGLYESRTKNSVA | NASTRES | QQYHRLPLS -> 1.1 nM (6 of 6 replicates)
- KLSQSWEYESRNKNSVA | NASTREV | QQYHRLPLS -> 610 pM (6 of 6 replicates)
- KSSDGVLYESRNKNSVA | GASTRES | QQYHRLPLS -> 1.2 nM (6 of 6 replicates)
- KVSQEKDYESRNKNSVA | DASTRES | QQYHRLPLS -> 1.2 nM (6 of 6 replicates)
- KLSQSYLYEQRNKNSVA | SASTRES | QQYHRLPLS -> 770 pM (6 of 6 replicates)
- NLSQSWLYESRNKNSVA | SGNTRES | QQYHRLPLS -> 500 pM (6 of 6 replicates)
- KLSQSELYESRNKNNVA | NASTRMS | QQYHRLPLS -> 310 pM (6 of 6 replicates)
- KSSQVHLYESRNKNSVA | GASTRES | QQYHRLPLS -> 30 nM (6 of 6 replicates)
- HLSDVVLYESRNKNSVA | NASTRES | QQYHRLPLS -> 880 pM (6 of 6 replicates)

The 4 strongest on average among those seen in every replicate, once more:

- KLSQSELYESRNKNNVA | NASTRMS | QQYHRLPLS = 310 pM (6 of 6 replicates)
- NLSQSWLYESRNKNSVA | SGNTRES | QQYHRLPLS = 500 pM (6 of 6 replicates)
- KLPQSWLYESRNKNSVA | NASQRMS | QQYHRLPLS = 580 pM (6 of 6 replicates)
- KLSQSWEYESRNKNSVA | NASTREV | QQYHRLPLS = 610 pM (6 of 6 replicates)

Nonspecific signal, from three strains lacking the peptide, appeared in 4% of pairings of all light chain designs, centred on 430 nM (5% of these signals below 38 nM); values are not corrected for it. Of ten entries with the parent sequence, four were seen in most replicates (averages 2.2 nM to 240 nM), three in one and three in none, so single entries are noisy. The authors averaged sequences with at least three values out of six and counted those with two or fewer as poor binders. Values of this round are not directly comparable with the first-round values of the same sequences.

Values reported by Li et al. 2023, doi:10.1038/s41467-023-39022-2 (FLAb copy).